# Compound activity from PubChem BioAssay.
# Sampled rows, rich in hits. Any-hit rate of the full collection: about 1.5%.
# Yeast UUG start-1 – modulators of yeast start codon fidelity, primary screen, whole organism, S. cerevisiae, single point, plate reader | activity score, % at 18.7 µM | 350,000 tested, 0.13% active | S. cerevisiae UUG-firefly luciferase reporter, luminescence/redox ratio;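 active means replicate mean at a twofold rise or more, about +100% in these data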;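 further: firefly luciferase made from a UUG start codon reports start codon fidelity; reporter light over untreated wells divided by growth signal over untreated wells; some hits fall short of that in this replicate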
# eIF4H inh – inhibitors of RNA binding by human eIF4H; Q15056; eIF4H fluorescence polarization binding assay; inhibition, % at 35 µM; 290,000 tested, 0.94% active; AID 2012;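 note: calls also rest on retests at 20 µM and on dose response follow-up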
# PABP polyA inh – PABP-poly(A) binding inhibition; P11940; PABP-poly(A) RNA binding, fluorescence polarization; calls only at 35 µM; 290,000 tested, 1% active; AID 2014;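 note: calls also rest on retests at 20 µM and on dose response follow-up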
# MLLE-PAM2 inh – inhibitors of microRNA-mediated deadenylation, human PABP1 MLLE binding; P11940; GST-MLLE / FITC-PAM2 fluorescence polarization; inhibition, % at 20 µM; 360,000 tested, 0.36% active; in the data active = inhibition above about 35%, passing the limit was not always enough
# DSG3 Ab inh – inhibitors of pemphigus antibody binding to human desmoglein-3; binding (percent of control), % at 10 µM; P32926; DSG3-coupled beads, scFv-anti-DSG3-GFP binding, flow cytometry; active compounds read low; 310,000 tested, 0.48% active;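 active = binding more than 3 SD below its plate's average and above zero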;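 note: hits lower antibody fragment binding to DSG3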
# Yeast UUG start-2 – alters UUG start codon use in yeast; shares compounds with Yeast UUG start-1; S. cerevisiae UUG-start firefly luciferase, luminescence, 4 h; 100% means double the DMSO signal; activation, % at 38 µM; 540 tested, under 10 active;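 active = signal increase whose fitted curve reaches an absolute level of 40 at a concentration under 10 µM; inactive = activity opposite to the expected increase, or the rest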
# A number is an active result; n = inactive; x = not tested or not shown. Unless noted, the rule behind the calls is not given here.
SMILES,Yeast UUG start-1,eIF4H inh,PABP polyA inh,MLLE-PAM2 inh,DSG3 Ab inh,Yeast UUG start-2
CCOC(=O)NNC(=O)C12CC3CC(CC(C3)C1)C2,489,n,n,n,n,n
COC(=O)c1ccc(Cc2ccc(C(=O)OC)o2)o1,n,n,n,n,n,x
COC(=O)c1ccc(COC(=O)c2ccc(CO)cc2)o1,185,n,n,n,n,n
Cc1noc(C)c1NC(=O)N(C)C[C@@H]1Oc2c(NS(C)(=O)=O)cccc2C(=O)N([C@@H](C)CO)C[C@@H]1C,n,x,x,x,x,x
C[C@H](CO)N1C[C@H](C)[C@@H](CN(C)Cc2ccc(Oc3ccccc3)cc2)Oc2ccc(NC(=O)CCC(F)(F)F)cc2CC1=O,n,x,x,x,x,x
O=C(C1CCC1)N1C[C@H]2[C@@H](c3ccccc31)[C@H](CO)N2C(=O)c1ccccc1,101,x,x,x,x,n
O=C(C1CCC1)N1C[C@@H]2[C@H](c3ccccc31)[C@H](CO)N2C(=O)c1ccccc1F,195,x,x,x,x,n
C[C@H](CO)N1C[C@H](C)[C@H](CN(C)C(=O)c2ccccc2F)Oc2ncc(C#C[C@@H](C)O)cc2C1=O,n,x,x,x,x,x
Cc1cc(NC(=O)COC(=O)COc2ccc(C(=O)c3ccccc3)cc2)no1,184,n,n,n,n,n
CO[C@@H]1CN(C)C(=O)c2ccc(NS(C)(=O)=O)cc2OC[C@H](C)N(C(=O)NC(C)C)C[C@H]1C,n,x,x,x,x,x
O=C(C[C@H]1C=C[C@H](NC(=O)C2CCOCC2)[C@H](CO)O1)NCC1CC1,n,x,x,x,x,x
CN1CCN(CC#CC(C)(O)C2CC3C=CC2C3)CC1 (configuration not stated),166,n,n,n,n,n
OC(CCN1CCCCC1)(c1ccccc1)C1C[C@@H]2C=C[C@H]1C2 (some centres not stated),n,x,x,n,n,x
C[C@H](CO)N1C[C@H](C)[C@@H](CN(C)CC2CC2)Oc2cc(C#CC3(O)CCCC3)ccc2S1(=O)=O,n,x,x,x,x,x
CCCC(=O)Nc1ccccc1NC(=O)c1ccc(OCC)c(OCC)c1,x,n,n,n,n,x
CCCC(=O)Nc1ccccc1NC(=O)c1ccc(OC(C)=O)cc1,444,n,n,n,n,n
Cc1ccc(S(=O)(=O)N(C)C[C@H]2Oc3cc(-c4cccc(F)c4)ccc3S(=O)(=O)N([C@@H](C)CO)C[C@@H]2C)cc1,106,x,x,x,x,n
C[C@@H]1CN([C@@H](C)CO)S(=O)(=O)c2ccc(-c3cccnc3)cc2O[C@H]1CN(C)C(=O)c1cccc(F)c1,n,x,x,x,x,x
CC(C)CC#Cc1ccc2c(c1)O[C@@H](CN(C)C(=O)c1cccnc1)[C@@H](C)CN([C@@H](C)CO)S2(=O)=O,121,x,x,x,x,n
C[C@H]1CN([C@@H](C)CO)S(=O)(=O)c2ccc(-c3cccnc3)cc2O[C@@H]1CN(C)C(=O)c1cccc(F)c1,214,x,x,x,x,n
C[C@@H]1CN([C@H](C)CO)S(=O)(=O)c2ccc(-c3cccc(F)c3)cc2O[C@@H]1CN(C)S(=O)(=O)c1ccc(F)cc1,n,x,x,x,x,x
C[C@@H]1CN([C@H](C)CO)C(=O)Cc2cc(NC(=O)Nc3ccccc3)ccc2O[C@H]1CN(C)Cc1ccncc1,n,x,x,x,x,x
C[C@H]1CN([C@@H](C)CO)S(=O)(=O)c2ccc(-c3ccc(C#N)cc3)cc2O[C@H]1CN(C)C,n,x,x,x,x,x
C[C@@H]1CN([C@@H](C)CO)C(=O)c2cc(NC(=O)NC3CCCCC3)ccc2O[C@@H](C)CCCCO[C@H]1CN(C)C(=O)C1CCCCC1,n,x,x,x,x,x
C/C(=N\NC(=O)CC1N=C(Cc2ccccc2)NNC1=O)c1ccc(C)cc1 (configuration not stated),372,n,n,n,n,n
SMILES,Yeast UUG start-1,eIF4H inh,PABP polyA inh,MLLE-PAM2 inh,DSG3 Ab inh,Yeast UUG start-2
CC(C)CC#Cc1ccc([C@H]2[C@@H](CO)N3CCCCN(S(=O)(=O)c4ccc(F)cc4)C[C@H]23)cc1,81,x,x,x,x,n
COc1ccc(NC(=O)COc2ccc(-c3nn(C)c(=O)c4ccccc34)cc2)cc1,n,n,n,n,n,x
COc1ccc(CCNC(=O)Cc2nn(C)c(=O)c3ccccc23)cc1OC,n,n,n,n,x,n
Cn1nc(CC(=O)Nc2ccc(OC(=O)c3ccccc3)cc2)c2ccccc2c1=O,x,x,x,x,x,n
Cn1nc(CC(=O)Nc2ncc(Br)s2)c2ccccc2c1=O,n,n,n,n,x,x
COc1ccc(NC(=O)Cc2nn(C)c(=O)c3ccccc23)cc1,x,x,x,x,x,n
Cn1nc(CC(=O)Nc2ccc3c(c2)CCC3)c2ccccc2c1=O,n,n,n,n,n,n
COc1ccc(CCNC(=O)CNC(=O)c2nn(-c3ccc(OC)c(OC)c3)c(=O)c3ccccc23)cc1OC,n,n,n,n,n,x
CCC(=O)N1CC[C@@H]2[C@H](CO)Nc3ccc(-c4ccc(C(=O)N(C)C)cc4)cc3[C@@H]21,n,x,x,x,x,x
C[C@@H]1CN([C@H](C)CO)C(=O)Cc2cc(NS(=O)(=O)c3cn(C)cn3)ccc2O[C@@H]1CN(C)S(C)(=O)=O,n,x,x,x,x,x
CC(C)NC(=O)N(C)C[C@H]1OCCCC[C@H](C)Oc2ccc(NS(=O)(=O)c3ccccc3)cc2C(=O)N([C@@H](C)CO)C[C@H]1C,n,x,x,x,x,x
O=C(C[C@@H]1C=C[C@H](NC(=O)C2CCC2)[C@@H](CO)O1)NCc1ccncc1,n,x,x,x,x,x
CCOC(=O)C1CCN(Cc2cnc(NC(=O)OC)s2)CC1,n,n,n,n,n,x
CCOC(=O)C1CCN(Cc2cnc(Oc3ccc(C(C)(C)C)cc3)s2)CC1,127,n,n,n,n,n
CCN(CC)CCNC(=O)C(C)c1nn(CC)c(=O)c2ccccc12 (configuration not stated),x,n,n,n,x,n
CCN(CC)CCNC(=O)Cc1nn(CC)c(=O)c2ccccc12,n,n,n,n,n,n
CCN(CC)CCNC(=O)Cn1nc(Cc2ccccc2)c2ccccc2c1=O,n,n,n,n,n,x
CCn1c(O)c(N=NC(=O)CNC(=O)Cc2ccccc2)c2ccccc21,n,n,n,n,x,x
O=C(CNC(=O)c1ccco1)N=Nc1c(O)n(CCc2ccccc2)c2ccccc12,229,n,n,n,n,n
CC(C)NC(=O)N(C)C[C@@H]1Oc2c(NS(C)(=O)=O)cccc2C(=O)N([C@H](C)CO)C[C@H]1C,n,x,x,x,x,x
C[C@H]1CN([C@@H](C)CO)C(=O)c2cc(-c3ccc(C#N)cc3)cnc2O[C@H]1CN(C)C(=O)c1cccnc1,n,x,x,x,x,x
C[C@H](CO)N1C[C@H](C)[C@H](CN(C)C(=O)c2cccnc2)Oc2ncc(-c3ccc(C#N)cc3)cc2C1=O,154,x,x,x,x,n
C[C@@H]1CN([C@@H](C)CO)C(=O)c2cc(-c3cccc(F)c3)cnc2O[C@@H]1CN(C)C(=O)c1cccc(F)c1,active,x,x,x,x,n
C[C@H](CO)N1C[C@H](C)[C@@H](CN(C)S(=O)(=O)c2ccc(Cl)cc2)OCCCC[C@H](C)Oc2ccc(NC(=O)c3ccncc3)cc2C1=O,n,x,x,x,x,x
Cc1noc(C)c1NC(=O)Nc1cccc2c1O[C@@H](CN(C)C(=O)Nc1ccccc1)[C@@H](C)CN([C@H](C)CO)C2=O,n,x,x,x,x,x
Cc1cc(C)c(-n2nnnc2SCC(=O)c2cccs2)c(C)c1,active,n,n,n,x,n
